Read-outs that look alike come from different tables or passages of the source.
Columns and labels:
[1] = Various stabilizers: degradation of H2O2 at pH 4, 5.5 and 7; conditions: with stabilizer, 25 mM citric acid, approx. 1% H2O2

## Sodium salt of Ethylenediaminetetra(methylenephosphonic)acid [Sodium salt of EDATMP]
[1]; pH 4
  calculated amount of degraded H2O2 after 2 years of storage at 23° C.: 18.3%
[1]; pH 5.5
  calculated amount of degraded H2O2 after 2 years of storage at 23° C.: 14.5%
[1]; pH 7
  calculated amount of degraded H2O2 after 2 years of storage at 23° C.: 25.8%
0 mM citrate, pH 4, DETAPMP 500 mg/L, sodium salt of DETAPMP 1000 mg/L, sodium salt of EDATMP 500 mg/L
  Calculated degraded amount of H2O2 (%) after 2 years storage at 23° C.: 15.4%
0 mM citrate, pH 4, sodium salt of EDATMP 1000 mg/L
  Calculated degraded amount of H2O2 (%) after 2 years storage at 23° C.: 15.4%
0 mM citrate, pH 5.5, DETAPMP 500 mg/L, sodium salt of DETAPMP 1000 mg/L, sodium salt of EDATMP 500 mg/L
  Calculated degraded amount of H2O2 (%) after 2 years storage at 23° C.: 18.2%
0 mM citrate, pH 5.5, sodium salt of EDATMP 1000 mg/L
  Calculated degraded amount of H2O2 (%) after 2 years storage at 23° C.: 21.0%
0 mM citrate, pH 7, DETAPMP 500 mg/L, sodium salt of DETAPMP 1000 mg/L, sodium salt of EDATMP 500 mg/L
  Calculated degraded amount of H2O2 (%) after 2 years storage at 23° C.: 35.0%
0 mM citrate, pH 7, sodium salt of EDATMP 1000 mg/L
  Calculated degraded amount of H2O2 (%) after 2 years storage at 23° C.: 25.2%
10 mM citrate, pH 4, DETAPMP 500 mg/L, sodium salt of DETAPMP 1000 mg/L, sodium salt of EDATMP 500 mg/L
  Calculated degraded amount of H2O2 (%) after 2 years storage at 23° C.: 19.6%
10 mM citrate, pH 4, sodium salt of EDATMP 1000 mg/L
  Calculated degraded amount of H2O2 (%) after 2 years storage at 23° C.: 37.8%
10 mM citrate, pH 5.5, DETAPMP 500 mg/L, sodium salt of DETAPMP 1000 mg/L, sodium salt of EDATMP 500 mg/L
  Calculated degraded amount of H2O2 (%) after 2 years storage at 23° C.: 53.2%
10 mM citrate, pH 5.5, sodium salt of EDATMP 1000 mg/L
  Calculated degraded amount of H2O2 (%) after 2 years storage at 23° C.: 30.8%
10 mM citrate, pH 7, DETAPMP 500 mg/L, sodium salt of DETAPMP 1000 mg/L, sodium salt of EDATMP 500 mg/L
  Calculated degraded amount of H2O2 (%) after 2 years storage at 23° C.: 86.8%
10 mM citrate, pH 7, sodium salt of EDATMP 1000 mg/L
  Calculated degraded amount of H2O2 (%) after 2 years storage at 23° C.: 43.4%
25 mM citrate, pH 4, DETAPMP 500 mg/L, sodium salt of DETAPMP 1000 mg/L, sodium salt of EDATMP 500 mg/L
  Calculated degraded amount of H2O2 (%) after 2 years storage at 23° C.: 50.4%
25 mM citrate, pH 4, sodium salt of EDATMP 1000 mg/L
  Calculated degraded amount of H2O2 (%) after 2 years storage at 23° C.: 50.4%
25 mM citrate, pH 5.5, DETAPMP 500 mg/L, sodium salt of DETAPMP 1000 mg/L, sodium salt of EDATMP 500 mg/L
  Calculated degraded amount of H2O2 (%) after 2 years storage at 23° C.: 103.6%
25 mM citrate, pH 5.5, sodium salt of EDATMP 1000 mg/L
  Calculated degraded amount of H2O2 (%) after 2 years storage at 23° C.: 39.2%
25 mM citrate, pH 7, DETAPMP 500 mg/L, sodium salt of DETAPMP 1000 mg/L, sodium salt of EDATMP 500 mg/L
  Calculated degraded amount of H2O2 (%) after 2 years storage at 23° C.: 137.1%
25 mM citrate, pH 7, sodium salt of EDATMP 1000 mg/L
  Calculated degraded amount of H2O2 (%) after 2 years storage at 23° C.: 158.1%

Source: patent publication US9028858B2 (Coloplast A/S, priority 2003, dated 2015)
